Measured values as given in patent US8618107B2 (Gilead Connecticut, Inc., priority 2010, dated 2013).

System: CD69 on CD20 positive cells in human whole blood stimulated by anti-IgM
Assay: CD69 Whole Blood Assay
Format: cell-based
Settings: anti-human IgM stimulation, 20 hours

## Cn1cc(-c2cc(F)cc(N3CCn4c(cc5c4CCCC5)C3=O)c2CO)cc(Nc2ccc(N3CCN(C4COC4)CC3)cn2)c1=O [Example 210, 2-(5-fluoro-2-(hydroxymethyl)-3-(1-methyl-5-(5-(4-(oxetan-3-yl)piperazin-1-yl)pyridin-2-ylamino)-6-oxo-1,6-dihydropyridin-3-yl)phenyl)-3,4,6,7,8,9-hexahydropyrazino[1,2-a]indol-1(2H)-one]
  IC50: 35 nM
